These results are taken from patent US20160177395A1, “BIOMARKERS FOR THE PREDICTION OF RENAL INJURY” (priority 2007, published 2016).

Series [1] has as its system Sprague-Dawley Crl:CD(SD) rats. The experiment in a line: Rat toxicity study, single, 5-day and 28-day treatment (clinical observation, clinical pathology, autopsy, organ weights, histopathology).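 Further: control rats received saline intraperitoneally, and the organs examined were adrenals, brain, kidneys, liver, spleen and thymus.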
The subject of series [2] is Sprague-Dawley Crl:CD(SD) rats. The note with it: rat, in vivo.
Setting [3] is: females, 28-days treatment group, 4 mg/kg.
[4] abbreviates: males, 28-days treatment group, 4 mg/kg.

Entries after “also recorded” stand apart in the source; their conditions may differ. Read-outs that look alike come from different tables or passages of the source.

As for `COc1cccc2c1C(=O)c1c(O)c3c(c(O)c1C2=O)C[C@@](O)(C(=O)CO)C[C@@H]3O[C@H]1C[C@H](N)[C@H](O)[C@H](C)O1` [Doxorubicin], in series [1] (28-day treatment), the Clinical symptoms result was “severe clinical symptoms and lethality when administered in a 4 mg/kg dose”. Besides, in series [1] (28-days treatment group, originally planned dose 4 mg/kg, 4 mg/kg), the Lethality entry is “Two out of 3 males and 1 out of 3 females died; also recorded: Death occurred only in Doxorubicin treated groups”. Also, in series [1] (28-days treatment, lowered dose 1 mg/kg, 1 mg/kg), the Lethality entry was “not lethal; also recorded: No lethality was recorded after lowering the dose from 4 mg/kg to 1 mg/kg”. In series [1] (setting [3]), the Died was 1/3 (Day 9) and the Moribund is on record as 2/3 (Day 9). Besides, in series [1] (setting [4]), the Died is given as 2/3 (Day 8) and the Moribund was 1/3 (Day 8). In series [2], the Body weight gain entry was “Decreased body weight gain was recorded in both sexes”; the Clinical symptoms result is “Clinical symptoms were observed”; the “Water consumption, males” value was “Significant decrease from Week 2”.
